Data on two molecules can be found in US10947234B2, “PRMT5 inhibitors” (Merck Sharp & Dohme Corp., priority 2017, dated 2021).

Chains of the proteins cited; added tags and fusions are not shown.
UniProt O14744, whole entry: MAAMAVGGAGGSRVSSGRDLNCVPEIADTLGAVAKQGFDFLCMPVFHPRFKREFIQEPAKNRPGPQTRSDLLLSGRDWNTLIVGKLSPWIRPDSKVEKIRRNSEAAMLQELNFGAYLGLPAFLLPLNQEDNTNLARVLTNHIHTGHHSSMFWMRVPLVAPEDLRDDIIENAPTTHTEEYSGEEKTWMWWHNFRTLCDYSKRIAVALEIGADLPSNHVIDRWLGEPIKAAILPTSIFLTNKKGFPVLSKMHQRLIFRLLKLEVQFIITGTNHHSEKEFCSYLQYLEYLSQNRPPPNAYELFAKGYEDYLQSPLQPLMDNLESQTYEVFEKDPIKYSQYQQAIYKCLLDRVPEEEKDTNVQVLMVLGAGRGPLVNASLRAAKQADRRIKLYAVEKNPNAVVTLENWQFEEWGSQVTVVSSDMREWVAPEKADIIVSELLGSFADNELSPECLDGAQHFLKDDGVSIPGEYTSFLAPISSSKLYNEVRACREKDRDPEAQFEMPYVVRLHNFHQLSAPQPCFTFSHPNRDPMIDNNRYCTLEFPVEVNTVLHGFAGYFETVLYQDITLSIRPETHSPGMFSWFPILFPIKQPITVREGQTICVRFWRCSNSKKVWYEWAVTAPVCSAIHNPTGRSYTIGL

Like-named read-outs stand apart in the source and are kept apart here. A value given as a limit tells only on which side of the number the result lay.

Test [1] deals with Full-length (FL)-PRMT5-MEP50 enzyme complex (Homo sapiens (Human), UniProt O14744). In words: PRMT5-MEP50 Enzyme Methylation Assay. It is filed as biochemical. The note with it: biotinylated H4R3(Me1) peptide, 15 μM SAM, top compound concentration 100000 nM. The procedure:
PRMT5-MEP50 Enzyme Methylation Assay
PRMT5/MEP50 biochemical assay is a direct measurement of the methylation activity of the enzyme complex on a short peptide substrate derived from the N-terminus of H4 histone. Methylation experiment is performed with recombinant protein. The assessment of inhibitory effect (IC50) of small molecules is measured by the effectiveness of the compounds to inhibit this reaction.
In this assay, the potency (IC50) of each compound was determined from a twenty-point (1:2 serial dilution; top compound concentration of 100000 nM) titration curve using the following outlined procedure. To each well of a white ProxiPlus 384 well-plate, 100 nL of compound (1% DMSO in final assay volume of 10 μL) was dispensed, followed by the addition of 8 μL of 1× assay buffer (50 mM Bicine pH 8.0, 1 mM DTT, 0.004% Tween20, 0.01% BSA) containing 0.5 nM of Full-length (FL)-PRMT5-MEP50 enzyme complex (recombinant proteins from baculovirus-transfected Sf21 cells: FL-PRMT5; MW=[…] and FL-MEP50; MW=38614). Plates were sealed and placed in a 37° C. humidified chamber for 30 minutes pre-incubation with compounds. Subsequently, each reaction was initiated by the addition of 2 μL 1× assay buffer containing 75 nM biotinylated H4R3(Me1) peptide, and 15 μM S-(5′-Adenosyl)-L-Methionine Chloride (SAM). The final reaction in each well of 10 μL consists of 0.5 nM PRMT5-MEP50, 75 nM biotinylated-peptide, and 15 μM. Methylation reactions were allowed to proceed for 150 minutes in a sealed plate at 37° C. Reactions were immediately quenched by the addition of 1 μL of 10% formic acid. Plates were then frozen and shipped to SAMDI™ Tech Inc. to determine the percent conversion from […]. IC50 values were determined by 7 parameters biphasic fit model plotting the percent product conversion vs. (Log10) compound concentrations.

The next test deals with PRMT5 (Homo sapiens (Human), UniProt O14744). In words: PRMT5 Cell Target Engagement (TE) Assay. The settings on record: MCF-7 cells, 3 days treatment, nuclear SDMA by high content imaging; top compound concentration 10000 nM. The format is cell-based. An excerpt: PRMT5 Cell Target Engagement (TE) Assay
The PRMT5 TE assay is a biomarker assay for identifying compounds that inhibit symmetric dimethylation of arginine (SDMA) of PRMT5 substrates. This assay detects symmetrically dimethylated nuclear proteins using high content imaging technology. Detection of the expression of symmetrically dimethylated nucleo proteins is through a mixture of primary rabbit monoclonal antibodies to SDMA (CST 13222), which in turn recognized by an Alexafluor 488 dye-conjugated anti-rabbit IgG secondary antibody. The IN Cell Analyzer 2200 measures nuclear Alexafluor 488 fluorescent dye intensity that is directly related to the level of expression of symmetrically dimethylated nuclear proteins at the single cell level. Nuclear AF488 dye intensities are compared to the mean value for DMSO treated cells […] to report percent of inhibition for each compound-treated well.
In this assay, the cell potency (EC50) of each compound was determined from a ten point (1:3 serial dilution; top compound concentration of 10000 nM) titration curve using the following outlined procedure. Each well of a BD falcon collagen coated black/clear bottom 384-well plate was seeded with 4000 MCF-7 cells and allowed to attach for 5 hours. Media from cell plate was removed at 0.5 mm above the bottom of the plate and replaced with 30 μL of fresh media containing 1.2× compounds in 0.1% DMSO. […]

Setting [2] is: first IC50 of 7 parameters biphasic fit, read-out: Enzyme Methylation Assay IC50_1.
Setting [3] is: second IC50 of 7 parameters biphasic fit, read-out: Enzyme Methylation Assay IC50_2.

The term EC50 denotes the concentration needed to bring the measured effect to its halfway point. Higher therefore signals a need for much substance. On to `CC(=O)N1CCC(Nc2cc3c(cn2)CCN(C[C@@H](O)[C@@H]2Cc4ccccc4CN2)C3=O)CC1` (single isomer, unassigned) [Example 5], for which the figures for the IC50 in test [1] (setting [2]) and in test [1] (setting [3]) were 10.8 nM and 8160 nM, respectively. Further, on PRMT5, the EC50 amounted to 1590 nM.

Consider `CC(=O)N1CCC(Nc2cc3c(cn2)CCN(C[C@@H](O)[C@@H]2Cc4ccccc4CN2)C3=O)CC1` (single isomer, unassigned) [Example 6], for which the IC50 is 481 nM in test [1] (setting [2]) and ≥ 100000 nM in test [1] (setting [3]).
